The values that follow are results of earlier work, collected in paper PMC9256694.

The chains behind the UniProt entries cited, without tags or fusion partners. Residues count along the entry.
UniProt P01589, 22-240, chain 1 of 3: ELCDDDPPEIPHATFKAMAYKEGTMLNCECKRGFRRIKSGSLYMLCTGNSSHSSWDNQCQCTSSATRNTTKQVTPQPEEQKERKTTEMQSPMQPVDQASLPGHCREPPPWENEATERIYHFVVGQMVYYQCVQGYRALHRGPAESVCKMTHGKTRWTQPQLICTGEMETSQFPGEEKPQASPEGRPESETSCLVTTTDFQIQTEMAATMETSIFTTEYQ
UniProt P60568, 21-153: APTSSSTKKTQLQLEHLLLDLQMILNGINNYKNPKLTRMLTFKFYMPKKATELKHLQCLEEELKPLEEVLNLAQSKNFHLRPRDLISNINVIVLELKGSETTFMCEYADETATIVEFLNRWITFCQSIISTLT

Broadly, the pKd is the Kd on a negative log10 scale, so that one unit is a factor of ten.

pKd: −log10 of the molar value.

The data set deals with IL-2 receptor alpha/beta/gamma heterotrimer (Homo sapiens) (UniProt P01589).

For IL-2 (from UniProt P60568), the negative logarithm of the Kd (pKd) was 11.00.
